Curated experimental data: logP (octanol/water) values

Values as listed in the OPERA 2.9 repository of K. Mansouri.

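These are experimental values that the OPERA curators gathered from public databases to train and test their QSAR models. One number stands for a compound and property, with no spread given. Method, purity and exact conditions of the single measurements are not given. The measured form (salt, isomer or mixture) is not always the one drawn. Some entries may be limits or estimates that an upstream database listed as plain numbers.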

The octanol-water partition coefficient is given as log10; larger values mean a more lipophilic compound. "n/a" marks a cell with nothing listed here.

| compound | name | log Kow |
|---|---|---|
| CCCCCCCC(=O)OC | Methyl octanoate | 3.32 |
| O=C1c2ccccc2C(=O)N1CCS(=O)(=O)O.[K+] | n/a | -2.934 |
| O=C1c2ccccc2C(=O)c2c1ccc(O)c2O | Alizarin | 2.91 |
| OCCCCCCO | 1,6-Hexanediol | -0.055 |
| O=[N+]([O-])c1ccc2ccc[n+]([O-])c2c1 | 7-Nitro-1-oxo-1lambda~5~-quinoline | 0.36 |
| CC(C)(c1ccc(OS(=O)(=O)c2ccccc2/N=N/c2c(N)ccc3c(S(=O)(=O)[O-])cccc23)cc1)c1ccc(OS(=O)(=O)c2ccccc2/N=N/c2c(N)ccc3c(S(=O)(=O)[O-])cccc23)cc1.[Na+].[Na+] | n/a | 1.76 |
| CCOC(=O)OCCOc1cc(O)c2c(c1N)C(=O)c1ccccc1C2=O | n/a | 6.39 |
| CNC(C)C | N-Methylisopropylamine | 0.52 |
| O=C(NCCCCCCNC(=O)S(=O)(=O)O)S(=O)(=O)O.[HH].[HH].[Na+].[Na+] | n/a | -3.05 |
| CCCCC(C=O)CC (stereo unspecified) | 2-Ethylhexaldehyde | 3.335 |
| CC(O)(P(=O)(O)O)P(=O)(O)O | Etidronic acid | -3.5 |
| O=C1CCC2CCCCC2O1 (stereo unspecified) | Octahydro-2H-1-benzopyran-2-one | 1.4 |
| CCOc1nc2cccc(C(=O)O)c2n1Cc1ccc(-c2ccccc2-c2nc(=O)o[nH]2)cc1 | Azilsartan | 0.9 |
| C[SiH]1O[SiH](C)O[SiH](C)O[SiH](C)O1 (stereo unspecified) | Cyclotetrasiloxane, 2,4,6,8-tetramethyl- | 5.54 |
| CCCCCCCCCCC[C@@H](C[C@@H]1OC(=O)[C@H]1CCCCCC)OC(=O)[C@H](CC(C)C)NC=O | Orlistat | 8.565 |
| CC(C)(O)CCc1ccccc1 | 2-Methyl-4-phenylbutan-2-ol | 2.41 |
| O=C(c1ccccc1)c1ccc(OCC(O)COc2ccc(C(=O)c3ccccc3)c(O)c2)cc1O | n/a | 4.19 |
| CC(C)COC(=O)[C@@H](C)O | Propanoic acid, 2-hydroxy-, 2-methylpropyl ester, (2R)- | 1.35 |
| CCOc1ccccc1C(=N)N.Cl | 2-Ethoxybenzamidine hydrochloride | 0.206 |
| CCN(CC)Cc1cc(Nc2ccnc3cc(Cl)ccc23)ccc1O | Amodiaquine | 3.7 |
| C[C@H](CC=O)CCCC(C)(C)O | (S)-7-Hydroxy-3,7-dimethyloctanal | 1.68 |
| CCOC(=O)C1=NOC(c2ccccc2)(c2ccccc2)C1 | Ethyl 5,5-diphenyl-2-isoxazoline-3-carboxylate | 3.8 |
| CCOC(=O)c1cnc2n(c1=O)CC(C)CC2 (stereo unspecified) | n/a | 0.71 |
| Cc1ccccc1NC(=O)c1cc2ccccc2cc1O | 2-Naphthalenecarboxamide, 3-hydroxy-N-(2-methylphenyl)- | 2.55 |
| CC/C=C\CCOC(=O)C/C=C\CC | 3-Hexenoic acid, (3Z)-3-hexen-1-yl ester, (3Z)- | 4.01 |
| CC1=NN(c2cccc(S(=O)(=O)[O-])c2)C(=O)C1/N=N/c1cc(Cl)c(C)cc1S(=O)(=O)[O-].[NH4+].[NH4+].[NH4+].[NH4+] (stereo partly drawn) | n/a | -1.43 |
| c1cnn2cccc2c1 | Pyrrolo[1,2-b]pyridazine | 1.82 |
| CCCOCc1ccc(CC(C)C)cc1 | 4-(2-Methylpropyl)benzyl propyl ether | 5.5 |
| C=C(C)C(=O)OCCC(F)(F)C(F)(F)C(F)(F)C(F)(F)C(F)(F)C(F)(F)F | 3,3,4,4,5,5,6,6,7,7,8,8,8-Tridecafluorooctyl methacrylate | 5.2 |
| COc1cc(CC(C(C)=O)C(C)=O)ccc1O | 2,4-Pentanedione, 3-vanillyl- | 1.43 |
| Nc1c(S(=O)(=O)[O-])cc(Nc2ccccc2)c2c1C(=O)c1ccccc1C2=O.[Na+] | Acid Blue 25 | -0.09 |
| C[Si](C)(Cl)Cl | Dimethyldichlorosilane | -0.38 |
| CC(=O)N[C@@H](CCCCN)C(N)=O | acetyl-lysine amide | -2.82 |
| CCN(CC)c1ccc2c(c1)Oc1cc(N(CC)CC)ccc1C21OC(=O)c2ccccc21 | C.I. Solvent Red 49 | 3.649 |
| Cc1cc(S(=O)(=O)O)c(N)cc1Cl | 4-Amino-6-chlorotoluene-3-sulphonic acid | -0.97 |
| Nc1cc(S(=O)(=O)O)c(Nc2ccc3c(c2S(=O)(=O)O)Oc2c(Cl)c4c(c(Cl)c2=N3)Oc2c(ccc(Nc3cc(S(=O)(=O)O)c(N)cc3S(=O)(=O)O)c2S(=O)(=O)O)N=4)cc1S(=O)(=O)O | n/a | -2.335 |
| CCCCCCCC[C@@H](O)CCCCCCCCC(=O)O | (10R)-10-Hydroxystearic acid | 5.12 |
| O=S(=O)(F)C(F)(F)C(F)(F)OC(F)(Cl)C(F)(F)Cl (stereo unspecified) | 4,5-Dichloroperfluoro-3-oxapentanesulfonyl fluoride | 1.8 |
| COC1CCCCCCCCCCC1 | Cyclododecane, methoxy- | 5.061 |
| O=C(CCCCC(=O)OCC1CCC2OC2C1)OCC1CCC2OC2C1 (stereo unspecified) | Bis[(3,4-epoxycyclohexyl)methyl] adipate | 2.98 |
| C#CC(C)(C)N | 3-Butyn-2-amine, 2-methyl- | 0.29 |

Extract of 2 entries:

| compound | name | log Kow |
|---|---|---|
| C[SiH]1O[SiH](C)O[SiH](C)O[SiH](C)O1 (stereo unspecified) | Cyclotetrasiloxane, 2,4,6,8-tetramethyl- | 5.54 |
| O=C(NCCCCCCNC(=O)S(=O)(=O)O)S(=O)(=O)O.[HH].[HH].[Na+].[Na+] | n/a | -3.05 |